How the values were obtained:
Kv11.1 channels = Kv11.1 channels (Homo sapiens, UniProt Q12809); experiment: Lumenal [K+]RE measured with pHlicKer^RE in cells expressing WT Kv11.1 after blocker treatment; details: WT Kv11.1 cells; TEA 10 mM or cisapride 10 μM, 10 min; untreated ~78 mM
Description: EE and TGN pH and [K^+] measurements were carried out using pHlicKer^EE/TGN in HEK 293T cells transfected with hMSR1 and scFv-furin respectively. For EEs, HEK 293T cells were pulsed with 250 nM pHlicKer^EE for 10 min and chased for 10 min. For TGN, HEK 293T cells were pulsed with 250 nM pHlicKer^TGN for 90 min and chased for 90 min. Cells were washed with 1×PBS three times and then imaged. For recycling endosomes, HEK 293T cells were pulsed with 250 nM pHlicKer^RE for 15 min and chased for 30 min. Cells were washed with 1×PBS three times and then imaged using a widefield microscope.
Calculating pH-corrected [K^+] in early endosomes, trans-Golgi network, and recycling endosomes. To correct for pH and obtain K^+ values, the Kd of pHlicKer in single endosomes was calculated based on the Kd calibration plot versus pH. The pH of the organelle was measured from the D/A values calibrated across pH 5.5-7.0. Donor (D) and acceptor (A) images were background subtracted by drawing a region of interest outside the cells. The D image was duplicated, and a threshold was set to create a binary mask. Background-subtracted D and A images were then multiplied with the binary mask to get processed D and A images.

Chains of the proteins cited; added tags and fusions are not shown. Lines headed by an entry give the natural chain unless they say otherwise; changes in a name come on top.
UniProt Q12809: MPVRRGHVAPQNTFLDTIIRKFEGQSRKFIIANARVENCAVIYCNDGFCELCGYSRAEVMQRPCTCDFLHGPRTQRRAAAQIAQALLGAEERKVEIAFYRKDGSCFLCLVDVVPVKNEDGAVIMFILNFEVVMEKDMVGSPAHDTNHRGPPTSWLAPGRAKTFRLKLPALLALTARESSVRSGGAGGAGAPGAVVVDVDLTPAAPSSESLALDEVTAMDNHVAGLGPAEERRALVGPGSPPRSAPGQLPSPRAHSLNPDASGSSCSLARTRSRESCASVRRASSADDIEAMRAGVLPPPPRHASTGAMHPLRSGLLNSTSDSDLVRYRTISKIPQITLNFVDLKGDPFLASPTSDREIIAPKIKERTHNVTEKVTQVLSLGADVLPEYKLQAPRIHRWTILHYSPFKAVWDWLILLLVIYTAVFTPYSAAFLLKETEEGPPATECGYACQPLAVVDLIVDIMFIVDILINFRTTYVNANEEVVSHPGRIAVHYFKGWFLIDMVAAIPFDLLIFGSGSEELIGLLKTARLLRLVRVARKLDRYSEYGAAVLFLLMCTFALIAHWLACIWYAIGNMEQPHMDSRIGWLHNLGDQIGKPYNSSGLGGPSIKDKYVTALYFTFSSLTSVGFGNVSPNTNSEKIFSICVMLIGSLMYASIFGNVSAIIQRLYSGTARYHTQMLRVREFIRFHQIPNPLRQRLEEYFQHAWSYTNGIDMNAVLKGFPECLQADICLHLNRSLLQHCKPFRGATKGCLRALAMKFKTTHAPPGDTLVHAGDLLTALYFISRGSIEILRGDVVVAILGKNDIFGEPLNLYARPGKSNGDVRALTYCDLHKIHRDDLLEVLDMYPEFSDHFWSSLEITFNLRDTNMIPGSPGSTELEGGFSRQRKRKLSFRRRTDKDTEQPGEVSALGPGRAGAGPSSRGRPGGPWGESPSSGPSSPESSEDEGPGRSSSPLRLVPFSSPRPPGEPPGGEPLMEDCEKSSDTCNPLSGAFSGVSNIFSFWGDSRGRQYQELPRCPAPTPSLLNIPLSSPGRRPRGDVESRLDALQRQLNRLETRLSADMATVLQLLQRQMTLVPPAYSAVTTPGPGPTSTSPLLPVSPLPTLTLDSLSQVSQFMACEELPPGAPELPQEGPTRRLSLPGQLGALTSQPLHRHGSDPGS

[1] = tested on: HEK 293T cells lacking Kv11.1 channels (UT cells); details: TEA treatment

CC[N+](CC)(CC)CC.[Cl-] [TEA, tetraethyl ammonium chloride]
[K+]RE (Kv11.1 channels): ~37 mM
change of [K+]RE [1]: did not change

From patent US20240385200A1, “COMPOSITIONS AND METHODS OF DETERMINING PH AND POTASSIUM CONCENTRATION IN SAMPLES” (The University of Chicago, priority 2023, published 2024)
